Rango-impB inh = inhibitors of Rango-importin beta complex formation. Rango CFP/YFP FRET sensor + importin beta, 45 min. Potency, µM (titrated, usually from 92.2 µM), for inactives: at the top dose inhibition of complex formation. 340,000 tested, 0.031% active. AID 540263; calls by dose curve;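 note: 0% = DMSO wells and 100% = buffer wells lacking importin beta; nearly all actives have a fitted effect of over 15% in size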
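FRET biosensor (snurportin 1 IBB flanked by EYFP and cerulean), 50 nM, with compound 5 min, then 0.125 microM importin beta in PBS, 1 mM DTT, 0.02% Tween-20, 0.1% BSA. CFP/YFP ratio read after 45 min at room temperature; pre-read flags interference.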
EPAC1 ag = activates human EPAC1 exchange factor. 360,000 tested, 0.073% active. AID 720707. EPAC1 agonist qHTS, biochemical assay; response scale: 100% = response to 6.5 mM cAMP. O95398. Potency, µM (highest dose often 154 µM), without a hit: at the top dose activation, actives largely listed as activators; note: nearly all actives have a fitted effect of over 60% in size
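Normalized to 6.5 mM cAMP, activity reflects EPAC1-catalysed release of BODIPY-GDP from Rap1B, followed kinetically over 30 min at 480 nm excitation, 540 nm emission. Reaction contained 100 nM EPAC1, 250 nM Rap1B-BODIPY-GDP, 50 uM GDP.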
EPAC1 antagonist = EPAC1 (human) antagonism; 360,000 tested, 0.14% active; O95398; Potency, µM (doses to about 115 µM), without a hit: at the highest dose activity change, negative = inhibition, hits mostly inhibitors; EPAC1 GEF assay, Rap1b-BODIPY-GDP exchange fluorescence;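 note: plate controls were vehicle for no effect and positive control for full effect; nearly all actives have a fitted effect of over 50% in size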
Rango release inh = inhibition of RanGTP-driven Rango-importin beta dissociation | O95149+P62826 | Biochemical FRET Rango-importin beta, RanGTP-induced dissociation | Potency, µM (doses to about 46.1 µM), for the others: top-dose activity change, negative = inhibition | 340,000 tested, 0.071% active | AID 540253; calls by dose curve; note: % of control where 0% means no effect; nearly all actives have a fitted effect of over 45% in size
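Compounds preincubate 5 min with complex of recombinant Rango and importin beta in PBS with 1 mM DTT. Ran (0.6 uM) loaded with 2 mM GTP plus 0.2 uM RCC1 starts dissociation; FRET is recorded 45 min later.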
EPAC2 ag = agonists of human EPAC2 (RAPGEF4); Potency, µM (highest dose often 154 µM), without a hit: at the highest dose activation, usual class: activators; EPAC2 activation, biochemical qHTS; response scale: 100% = 6.5 mM cAMP response; 360,000 tested, 0.079% active; AID 720711; Q8WZA2; note: nearly all actives have a fitted effect of over 50% in size
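Nucleotide exchange monitored as fluorescence drop when BODIPY-GDP leaves Rap1B. Reaction: 100 nM EPAC2, 250 nM RAP1B-BODIPY-GDP, 50 uM GDP, room temperature, kinetic read over 30 min. Activity expressed relative to 6.5 mM cAMP.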
EPAC2 antag = antagonists of human EPAC2; Q8WZA2; EPAC2 GEF exchange of Rap1B-BODIPY-GDP, fluorescence; Potency, µM (highest dose often 114 µM), for the others: at the highest dose activity, negative = inhibition, hits mostly inhibitors; 360,000 tested, 0.18% active; AID 720708; note: % is set by controls: 0 for no effect and ±100 for the full control effect; nearly all actives have a fitted effect of over 45% in size
* hit, by the source's call; u = inconclusive; x = not tested or not shown. In the library only some 0.48% were active in any assay of this set; here they are far more common. Unless noted, calls come from the whole dose curve; as a rule, active = well fitted curve in the direction sought with a large enough effect; inconclusive = small, poorly fitted or top-dose-only effect, or another doubt; inactive = no such curve, though single readings can be large; an effect the other way counts as inactive or inconclusive. Potency is the fitted concentration of half-maximal effect.

SMILES	Rango-impB inh	EPAC1 ag	EPAC1 antagonist	Rango release inh	EPAC2 ag	EPAC2 antag
COc1cccc(/C=C2\SC(=S)N(NS(=O)(=O)c3ccccc3)C2=O)c1OC	4%	8%	50µM*	-11%	1%	u
Cc1ccc(S(=O)(=O)NN2C(=O)/C(=C/c3ccc(F)cc3)SC2=S)cc1	-2%	-4%	-13%	6%	6%	-2%
O=C1/C(=C/c2ccccn2)SC(=S)N1NS(=O)(=O)c1ccccc1	7%	1%	-28%	20%	-6%	-14%
O=C1/C(=C/c2cccc(F)c2)SC(=S)N1NS(=O)(=O)c1ccccc1	1%	-13%	40µM*	10%	-5%	18µM*
COc1cc(/C=C2\SC(=S)N(NS(=O)(=O)c3ccccc3)C2=O)cc(OC)c1OC	-1%	3%	u	-14%	5%	50µM*
O=c1c2ccccc2nnn1COc1ccc(Cl)cc1Br	5%	6%	-16%	1%	6%	-20%
CCCC(=O)OC1CC(C)N(C(=O)c2ccccc2)c2ccc(C)cc21 (stereo unspecified)	0%	8%	2%	11%	12%	25µM*
CCC(C(=O)Nc1cccc(OC)c1)n1nc(C)c2c(C)n(-c3ccccc3)nc2c1=O (stereo unspecified)	-1%	7%	-7%	9%	3%	-16%
CCOC(=O)c1c(NC(=O)/C=C\C(=O)O)sc(C)c1-c1ccccc1	1%	4%	-9%	7%	1%	-18%
CCOC(=O)c1c(NC(=O)/C=C/C(=O)O)sc(C)c1-c1ccc(C(C)(C)C)cc1	1%	-12%	56µM*	5%	-18%	u
CC(C)Cc1csc(NC(=O)c2ccc(F)cc2)c1C(=O)O	0%	5%	35µM*	-2%	-2%	-1%
COCCNc1nc2cc(-c3cccc(Cl)c3)sc2c(=O)n1C	x	13%	-2%	x	3%	10%
CCCCN1/C(=C/c2ccc3ccccc3[n+]2CC)Sc2ccccc21	46µM*	-2%	4%	16%	-3%	-4%
CCN1/C(=C/c2ccc3cc(C)ccc3[n+]2CC)Sc2cc(C)ccc21	u	-19%	u	u	3%	5%
COc1ccc(-c2[nH]c(-c3ccc(SC)cc3)nc2SCC(=O)Nc2nccs2)cc1	u	3%	71µM*	1%	-1%	0%
COc1ccc(-c2[nH]c(-c3ccc(C)cc3)nc2SCC(=O)Nc2nccs2)cc1	1%	6%	-6%	4%	3%	0%
O=C(COc1ccc([N+](=O)[O-])cc1)NC(C(=O)O)C(O)c1cccc([N+](=O)[O-])c1 (stereo unspecified)	-1%	-3%	9%	-3%	-4%	15%
O=C(Nc1ccccc1Cl)c1cc(C2CCCN(S(=O)(=O)c3cccs3)C2)on1 (stereo unspecified)	x	-6%	-8%	x	10%	-3%
COc1cc2c(cc1OC)C1(C)N(CC2)C(C(C)=O)=NN1c1ccc(Cl)cc1 (stereo unspecified)	u	15%	-21%	u	18%	25µM*
COc1cc2c(cc1OC)CN(C(=O)c1cc(Cl)nc(Cl)c1)CC2	4%	-11%	4%	-15%	9%	2%
CCc1ccc(S(=O)(=O)/N=C2/C=C(Sc3ncn[nH]3)C(=O)c3ccccc32)cc1	-1%	1%	u	4%	10%	40µM*
CCOc1cc(/C=C2/SC(=S)NC2=O)ccc1OC(=O)c1ccco1	4%	3%	35µM*	5%	3%	35µM*
CCOc1cc(/C=C2\SC(=Nc3ccc(CC)cc3)NC2=O)ccc1OCC(=O)O	u	u	35µM*	u	2%	3%
CC(=O)Cc1cc(O)c2ccccc2c1OC(=O)c1ccc(Br)cc1	-2%	-2%	8%	9%	-11%	5%

Fetched by structure from the entries so far:
SMILES	Rango-impB inh	EPAC1 ag	EPAC1 antagonist	Rango release inh	EPAC2 ag	EPAC2 antag
CCOc1cc(/C=C2\SC(=Nc3ccc(CC)cc3)NC2=O)ccc1OCC(=O)O	u	u	35µM*	u	2%	3%
CCOc1cc(/C=C2/SC(=S)NC2=O)ccc1OC(=O)c1ccco1	4%	3%	35µM*	5%	3%	35µM*
CC(=O)Cc1cc(O)c2ccccc2c1OC(=O)c1ccc(Br)cc1	-2%	-2%	8%	9%	-11%	5%
CCc1ccc(S(=O)(=O)/N=C2/C=C(Sc3ncn[nH]3)C(=O)c3ccccc32)cc1	-1%	1%	u	4%	10%	40µM*

Compound activity as filed in PubChem.
